Our source for the IC50 values is publication PMC11156913, “New sulfonamide-based glycosides incorporated 1,2,3-triazole as cytotoxic agents through VEGFR-2 and carbonic anhydrase inhibitory activity” (Scientific Reports, 2024).

In the experiment the test system is colorectal HCT-116 cancer cell line. As to the kind of experiment: In vitro cytotoxic activity (MTT assay), HCT-116. To be noted: Homo sapiens, HCT-116 cells, read-out: IC50 (mean ± SD) HCT-116. In kind it is cell-based. An excerpt:
The supplemental file contained extra details.

On to `CCN(CC)CCNC(=O)c1c(C)[nH]c(/C=C2\C(=O)Nc3ccc(F)cc32)c1C` [Sunitinib, reference compound], for which the IC50 stood at 9.67 ± 0.22 µM.
